According to paper PMC4358366, “Identification of ‘erasers’ for lysine crotonylated histone marks using a chemical proteomics approach” (eLife, 2014):
“Also recorded” adds a separate entry of the source.

What was measured:
[1] = biological target: T1, Sirt2 (Homo sapiens, UniProt Q8IXJ6); assay: Isothermal titration calorimetry, Sirt2; format: binding; details: ITC, 25 °C; Sirt2, compared with Sirt3
T1 construct: Plasmids of Sirt1 (193–747), Sirt2 (36–356), Sirt5 (34–302), and Sirt6 (1–314) for Escherichia coli expression; made in house; host or cells: E. coli Rosetta
T1 sequence (Q8IXJ6 36-356): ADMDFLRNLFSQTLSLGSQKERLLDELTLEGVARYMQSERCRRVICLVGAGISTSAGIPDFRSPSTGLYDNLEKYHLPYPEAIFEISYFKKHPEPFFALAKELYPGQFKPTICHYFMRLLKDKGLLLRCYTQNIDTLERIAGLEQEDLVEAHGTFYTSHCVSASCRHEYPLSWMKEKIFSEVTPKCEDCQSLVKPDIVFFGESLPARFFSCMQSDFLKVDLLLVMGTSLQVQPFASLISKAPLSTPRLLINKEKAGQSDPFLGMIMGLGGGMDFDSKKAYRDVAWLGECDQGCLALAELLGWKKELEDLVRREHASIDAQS

[2] = tested on: Sirt1; assay: Isothermal titration calorimetry, Sirt1; format: binding, human; details: ITC, 25 °C; Sirt1, compared with Sirt3
Protocol: (§1) Plasmids of Sirt1 (193–747), Sirt2 (36–356), Sirt5 (34–302), and Sirt6 (1–314) for Escherichia coli expression were generated as previously described ([Finnin et al., 2001]; [Du et al., 2011]; [Hubbard et al., 2013]; [Jiang et al., 2013]). […] Sirt3 mutant F180L was generated by site directed mutagenesis. All of the proteins were expressed in E. coli Rosetta cells. To induce expression of target proteins, isopropyl β-D-1-thiogalactopyranoside was added to a final concentration of 0.2 mM when OD600 reached 0.6, and the culture was grown at 15 °C (Sirt3 at 25 °C) for 16–18 hr. Cells were harvested and resuspended in lysis buffer A (50 mM Tris–HCl, pH 7.5, 500 mM NaCl, 1 mM PMSF, and Roche EDTA free protease inhibitors, for Sirt1, Sirt2, and Sirt6) or buffer B (50 mM Tris–HCl, pH 7.5, 150 mM NaCl, 1 mM PMSF, and Roche EDTA free protease inhibitors, for Sirt3 and Sirt5). Following sonication and centrifugation, the supernatant was loaded onto a nickel column pre-equilibrated with lysis buffer. The column was washed with 5 column volumes of wash buffer (lysis buffer with 30 mM imidazole) and then the target proteins were eluted with elution buffer (lysis buffer with 250 mM imidazole). After purification, Sirt2 was digested by UPL1 at 4 °C overnight and purified by a Highload 26/60 Superdex75 gel filtration column (GE Healthcare Life Sciences, United Kingdom). […]

[3] = tested on: Sirt3 H248Y; assay: Hydrolysis of crotonylated peptide by mutated Sirt3 H248Y, LC-MS; format: biochemical, human; details: H248Y mutant, 500 μM peptide, 1 mM NAD, pH 7.5, 37 °C, 2 hr
Protocol: as §1, with “buffer.” for “buffer. The column was washed with 5 column volumes of wash buffer (lysis buffer with 30 mM imidazole) and then the target proteins were eluted with elution buffer (lysis buffer with 250 mM imidazole). After purification, Sirt2 was digested by UPL1 at 4 °C overnight and purified by a Highload 26/60 Superdex75 gel filtration column (GE Healthcare Life Sciences, United Kingdom).”
(§2) The enzymatic activities of human sirtuins were measured by detecting the removal of the crotonyl group from peptides ([Du et al., 2011]). […] Samples were then analyzed by LC-MS with a Vydac 218TP C18 column (4.6 mm×250 mm, 5 μm; Grace Davison, Columbia, MD). […]

[4] = tested on: Sirt1; assay: Hydrolysis of H3K4Cr by Sirt1, LC-MS; format: biochemical, human; details: Sirt1 5 μM, 500 μM peptide, 1 mM NAD, pH 7.5, 37 °C, 2 hr
Protocol: as §1, with “buffer.” for “buffer. The column was washed with 5 column volumes of wash buffer (lysis buffer with 30 mM imidazole) and then the target proteins were eluted with elution buffer (lysis buffer with 250 mM imidazole). After purification, Sirt2 was digested by UPL1 at 4 °C overnight and purified by a Highload 26/60 Superdex75 gel filtration column (GE Healthcare Life Sciences, United Kingdom).”
as §2

[5] = biological target: T1, Sirt2; assay: Hydrolysis of H3K4Cr by Sirt2, LC-MS; format: biochemical; details: Sirt2 5 μM, 500 μM peptide, 1 mM NAD, pH 7.5, 37 °C, 2 hr
Protocol: as §1, with “buffer.” for “buffer. The column was washed with 5 column volumes of wash buffer (lysis buffer with 30 mM imidazole) and then the target proteins were eluted with elution buffer (lysis buffer with 250 mM imidazole). After purification, Sirt2 was digested by UPL1 at 4 °C overnight and purified by a Highload 26/60 Superdex75 gel filtration column (GE Healthcare Life Sciences, United Kingdom).”
as §2

[6] = tested on: Sirt5; assay: Hydrolysis of H3K4Cr by Sirt5, LC-MS; format: biochemical, human; details: Sirt5 5 μM, 500 μM peptide, 1 mM NAD, pH 7.5, 37 °C, 2 hr
Protocol: as §1, with “buffer.” for “buffer. The column was washed with 5 column volumes of wash buffer (lysis buffer with 30 mM imidazole) and then the target proteins were eluted with elution buffer (lysis buffer with 250 mM imidazole). After purification, Sirt2 was digested by UPL1 at 4 °C overnight and purified by a Highload 26/60 Superdex75 gel filtration column (GE Healthcare Life Sciences, United Kingdom).”
as §2

[7] = tested on: Sirt6; assay: Hydrolysis of H3K4Cr by Sirt6, LC-MS; format: biochemical, human; details: Sirt6 5 μM, 500 μM peptide, 1 mM NAD, pH 7.5, 37 °C, 2 hr
Protocol: as §1, with “buffer.” for “buffer. The column was washed with 5 column volumes of wash buffer (lysis buffer with 30 mM imidazole) and then the target proteins were eluted with elution buffer (lysis buffer with 250 mM imidazole). After purification, Sirt2 was digested by UPL1 at 4 °C overnight and purified by a Highload 26/60 Superdex75 gel filtration column (GE Healthcare Life Sciences, United Kingdom).”
as §2

binding affinity in words [1]: lower affinities
binding affinity in words [2]: lower affinities
Substance: H3K4Cr: lysine-4 crotonylated histone H3 peptide (1–15); (1–10) for crystallography; two C-terminal tryptophans added for kinetics
decrotonylation activity of Sirt3 H248Y [3]: completely abolished its decrotonylation activity; also recorded: or with the mutated Sirt3, H248Y
hydrolysis (decrotonylation) by Sirt1 [4]: significant decrotonylation activities; also recorded: catalyzed the hydrolysis of the H3K4Cr peptide
hydrolysis (decrotonylation) by Sirt2 [5]: significant decrotonylation activities; also recorded: catalyzed the hydrolysis of the H3K4Cr peptide
hydrolysis (decrotonylation) by Sirt5 [6]: little decrotonylation activities; also recorded: little hydrolysis of the crotonyl peptide was observed
hydrolysis (decrotonylation) by Sirt6 [7]: little decrotonylation activities; also recorded: little hydrolysis of the crotonyl peptide was observed
